These results are taken from patent US7196110B2, “N-substituted tricyclic 3-aminopyrazoles as inhibitors for the treatment of cell proliferative disorders” (Janssen Phamaceutica N.V., priority 2002, dated 2007).

By UniProt entry, the sequences of proteins in these tests, tags left out. Where a name states a change or a piece, a line headed by the entry shows the natural chain unless it says otherwise.
UniProt P09619: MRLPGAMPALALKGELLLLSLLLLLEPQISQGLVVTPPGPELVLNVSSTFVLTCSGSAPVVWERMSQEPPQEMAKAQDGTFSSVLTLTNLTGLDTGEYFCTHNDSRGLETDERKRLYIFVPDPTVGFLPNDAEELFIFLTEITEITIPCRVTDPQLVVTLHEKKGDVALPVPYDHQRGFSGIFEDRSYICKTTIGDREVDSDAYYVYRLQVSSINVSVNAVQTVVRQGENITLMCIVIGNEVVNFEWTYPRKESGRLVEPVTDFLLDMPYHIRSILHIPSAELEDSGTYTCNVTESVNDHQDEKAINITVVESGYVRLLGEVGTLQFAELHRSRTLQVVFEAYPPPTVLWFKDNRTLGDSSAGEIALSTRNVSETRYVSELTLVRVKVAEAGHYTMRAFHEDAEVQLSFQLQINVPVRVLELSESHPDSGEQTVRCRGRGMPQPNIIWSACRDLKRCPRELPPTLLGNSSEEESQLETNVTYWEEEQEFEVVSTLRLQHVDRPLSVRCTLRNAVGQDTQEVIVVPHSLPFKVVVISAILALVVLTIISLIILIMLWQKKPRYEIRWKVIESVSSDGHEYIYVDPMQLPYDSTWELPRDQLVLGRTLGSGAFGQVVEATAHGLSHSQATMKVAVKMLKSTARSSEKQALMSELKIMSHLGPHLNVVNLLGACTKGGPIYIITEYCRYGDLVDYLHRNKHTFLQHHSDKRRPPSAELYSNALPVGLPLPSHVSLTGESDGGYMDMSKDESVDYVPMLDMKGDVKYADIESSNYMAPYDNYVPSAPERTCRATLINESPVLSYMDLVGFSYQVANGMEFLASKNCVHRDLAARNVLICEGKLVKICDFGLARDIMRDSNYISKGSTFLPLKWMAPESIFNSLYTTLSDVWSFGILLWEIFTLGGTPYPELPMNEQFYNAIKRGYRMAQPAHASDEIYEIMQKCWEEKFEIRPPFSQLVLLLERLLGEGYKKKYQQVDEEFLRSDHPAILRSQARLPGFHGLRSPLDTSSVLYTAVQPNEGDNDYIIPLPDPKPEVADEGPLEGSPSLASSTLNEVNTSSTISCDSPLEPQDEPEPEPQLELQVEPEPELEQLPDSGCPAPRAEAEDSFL

The structures appear in SMILES notation.

In assay [1] the test system is human coronary artery smooth muscle cells (HCASMC), PDGF-BB induced. The experiment in a line: Anti-cell proliferation in normal cells in the presence of PDGF stimulation (14C-thymidine incorporation). In kind it is cell-based.
For the next assay, the system named is LoVo (colon). The experiment in a line: Anti-cell proliferation in tumor cells (14C-thymidine incorporation), LoVo. In kind it is cell-based. To be noted: Homo sapiens.
The subject of a further assay is PC3 (prostate). The experiment in a line: Anti-cell proliferation in tumor cells (14C-thymidine incorporation), PC3. In kind it is cell-based. Particulars: Homo sapiens, PC-3.
For another assay, the system named is A375 (melanoma). The assay can be described thus: Anti-cell proliferation in tumor cells (14C-thymidine incorporation), A375. In kind it is cell-based. Particulars: Homo sapiens, A-375.
The test system of assay [2] is human umbilical vein endothelial cells (HUVEC). The assay can be described thus: Anti-cell proliferation in normal cells in the absence of PDGF stimulation (BrdU incorporation). In kind it is cell-based. Particulars: LSGS, PDGF-BB independent. Background: Incorporation of labelled thymidine or its analogues reports DNA synthesis.
The next assay concerns AsPC1 (pancreas). The experiment in a line: Anti-cell proliferation in tumor cells (14C-thymidine incorporation), AsPC1. It counts as cell-based. To be noted: Homo sapiens.
Assay [3] has as its target T1, PDGF-receptor beta enzyme comprising the tyrosine kinase domain (Homo sapiens, UniProt P09619).
T1 construct: from amino acid 545 to 1106 of GenBank Access NO: AAA36427
The experiment in a line: Inhibition of PDGF-receptor kinase activity (cell-free, PLC1 peptide, 33P Flashplate). Particulars: PDGF-R kinase activity. In kind it is biochemical.

The subject of another assay is H460 (lung). The experiment in a line: Anti-cell proliferation in tumor cells (14C-thymidine incorporation), H460. In kind it is cell-based. To be noted: Homo sapiens, NCI-H460.

In the case of `COc1cc2c(cc1OC)-c1n[nH]c(Nc3cccc(Cl)c3)c1C2` [Compound 4, (3-Chloro-phenyl)-(6,7-dimethoxy-2,4-dihydro-indeno[1,2-c]pyrazol-3-yl)-amine], the IC50 in assay [1] is 268 nM; in the assay with LoVo (colon), 12 nM; in the assay with PC3 (prostate) it was 48 nM; in the assay with A375 (melanoma) it was 1580 nM; in assay [2], 1730 nM; in the assay with AsPC1 (pancreas), 427 nM. In addition, 3 nM corresponded to half-maximal inhibition in assay [3] (IC50).

For the compound `COc1ccc2c(c1)-c1n[nH]c(Nc3ccccc3)c1C2` [Compound 39, (7-Methoxy-2,4-dihydro-indeno[1,2-c]pyrazol-3-yl)-phenyl-amine], the half-inhibitory concentration (IC50) came out at 10500 nM in the assay on LoVo (colon), 15 nM in assay [2], 9950 nM in the assay with H460 (lung) and 18 nM in assay [3].

Usually IC50 stands for the concentration at which inhibition is half-maximal.
